Chains of the proteins cited; added tags and fusions are not shown. Residues count along the entry.
UniProt Q62645, 28-1323: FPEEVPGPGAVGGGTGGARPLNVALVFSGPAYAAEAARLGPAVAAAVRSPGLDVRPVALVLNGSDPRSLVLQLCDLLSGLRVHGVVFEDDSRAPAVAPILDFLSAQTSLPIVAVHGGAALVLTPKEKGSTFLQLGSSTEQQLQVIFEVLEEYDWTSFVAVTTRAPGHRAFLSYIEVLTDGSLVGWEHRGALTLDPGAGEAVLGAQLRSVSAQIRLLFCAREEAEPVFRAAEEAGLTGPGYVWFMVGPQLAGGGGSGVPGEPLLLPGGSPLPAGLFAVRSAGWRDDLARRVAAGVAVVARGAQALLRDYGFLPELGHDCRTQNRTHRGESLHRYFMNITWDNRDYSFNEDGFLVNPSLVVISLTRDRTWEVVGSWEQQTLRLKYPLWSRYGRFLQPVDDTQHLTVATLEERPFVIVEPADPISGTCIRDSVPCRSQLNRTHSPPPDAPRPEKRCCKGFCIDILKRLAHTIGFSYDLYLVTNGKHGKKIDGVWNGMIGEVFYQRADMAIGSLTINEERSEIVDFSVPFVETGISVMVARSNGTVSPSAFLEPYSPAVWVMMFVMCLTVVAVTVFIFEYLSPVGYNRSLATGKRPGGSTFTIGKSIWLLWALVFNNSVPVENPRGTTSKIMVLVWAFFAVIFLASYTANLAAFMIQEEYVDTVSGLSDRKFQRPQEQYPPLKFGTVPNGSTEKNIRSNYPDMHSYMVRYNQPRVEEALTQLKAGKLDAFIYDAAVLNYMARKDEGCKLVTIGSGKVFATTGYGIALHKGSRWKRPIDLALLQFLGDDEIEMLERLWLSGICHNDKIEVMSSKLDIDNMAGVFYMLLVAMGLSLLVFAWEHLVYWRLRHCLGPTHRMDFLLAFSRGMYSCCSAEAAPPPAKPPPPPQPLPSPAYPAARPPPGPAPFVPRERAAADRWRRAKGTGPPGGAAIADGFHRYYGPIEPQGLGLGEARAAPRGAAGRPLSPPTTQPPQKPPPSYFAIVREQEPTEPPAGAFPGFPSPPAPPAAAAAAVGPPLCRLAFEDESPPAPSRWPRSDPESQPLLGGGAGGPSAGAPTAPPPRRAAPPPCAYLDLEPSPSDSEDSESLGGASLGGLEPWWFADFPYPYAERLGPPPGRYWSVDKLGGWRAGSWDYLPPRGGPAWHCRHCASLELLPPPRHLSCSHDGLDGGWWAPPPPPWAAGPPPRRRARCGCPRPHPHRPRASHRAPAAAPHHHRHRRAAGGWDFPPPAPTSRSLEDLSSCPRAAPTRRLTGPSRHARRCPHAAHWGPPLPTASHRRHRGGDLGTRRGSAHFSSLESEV
UniProt P39086, 31-905 isoform P39086-2 limits assumed: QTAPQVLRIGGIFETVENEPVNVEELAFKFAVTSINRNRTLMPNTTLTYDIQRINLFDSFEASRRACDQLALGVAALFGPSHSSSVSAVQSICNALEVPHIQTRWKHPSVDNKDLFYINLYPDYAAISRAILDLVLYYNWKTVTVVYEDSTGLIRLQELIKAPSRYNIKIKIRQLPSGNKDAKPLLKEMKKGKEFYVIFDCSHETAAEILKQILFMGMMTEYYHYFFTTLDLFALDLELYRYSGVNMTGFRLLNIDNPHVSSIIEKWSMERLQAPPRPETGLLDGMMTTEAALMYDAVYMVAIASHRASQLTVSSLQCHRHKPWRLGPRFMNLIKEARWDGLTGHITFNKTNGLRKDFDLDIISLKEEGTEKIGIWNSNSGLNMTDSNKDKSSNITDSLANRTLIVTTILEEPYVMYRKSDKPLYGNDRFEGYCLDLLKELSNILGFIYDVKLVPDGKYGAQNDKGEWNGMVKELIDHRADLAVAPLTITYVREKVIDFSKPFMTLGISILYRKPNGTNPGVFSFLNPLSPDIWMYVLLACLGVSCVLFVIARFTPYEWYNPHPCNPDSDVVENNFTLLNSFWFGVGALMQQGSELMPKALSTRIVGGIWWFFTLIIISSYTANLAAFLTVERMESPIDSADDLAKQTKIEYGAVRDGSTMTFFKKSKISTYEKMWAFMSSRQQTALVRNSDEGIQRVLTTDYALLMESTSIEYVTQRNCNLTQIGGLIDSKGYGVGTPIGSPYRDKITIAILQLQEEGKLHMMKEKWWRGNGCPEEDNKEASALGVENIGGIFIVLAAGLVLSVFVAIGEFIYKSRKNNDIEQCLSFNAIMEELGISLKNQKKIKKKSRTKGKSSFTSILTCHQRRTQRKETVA

In publication PMC3269097 (Journal of Medicinal Chemistry, 2011):

What was measured:
[1] = biological target: GluN1a/GluN2D NMDAR (Rattus norvegicus, UniProt Q62645); assay type: cell-based; conditions: from Ki values
[2] = biological target: human GluK1 (Homo sapiens, UniProt P39086); assay type: cell-based; conditions: from KB values

Row | Compound | selectivity for GluN2D versus GluN2A [1] [fold] | selectivity for GluN2D versus GluN2B [1] [fold] | fold lower affinity for GluK1 compared to 34b [2]
1 | O=C(O)[C@H]1NCCN(C(=O)c2ccc3cc(-c4ccccc4)ccc3c2)[C@H]1C(=O)O (relative stereo) [Compound 18d, (2R*,3S*)-1-(6-Phenylnaphthalene-2-carbonyl)piperazine-2,3-dicarboxylic acid] | > 10 | > 10 | 
2 | O=C(O)[C@H]1NCCN(C(=O)c2ccc(C#Cc3ccccc3)cc2)[C@H]1C(=O)O [Compound 18k] |  |  | approximately 2 fold
